In patent publication US4847241A, “Fluorenyl substituted tyrosyl dipeptide amides which are useful in treating pain” (priority 1988, dated 1989) one finds IC50 data, which are given here for two molecules.

For the experiment, the target named is opiate receptors isolated from rat brain. The following applies: read-out: Opiate Binding, IC50. On the procedure:
The test compounds were evaluated for their ability to displace the binding of ^3 H-Naloxone to opiate receptors isolated from rat brain. […] The final pellet was resuspended in 2 volumes of 50 mM tris HCl (pH 7.4).
Levorphanol (1×10^-5 M) was used as the displacer for non-specific binding. […] Total assay volume was 1.0 ml.

As a reminder, the IC50 is the concentration that gives 50% inhibition.

On to `Cc1cc(O)cc(C)c1CC(N)C(=O)N[C@H](C)C(=O)N1CCCc2ccccc21.Cl` (stereo partly drawn) [Example 30, α-amino-4-hydroxy-2,6-dimethyl-N-[1R-methyl-2-oxo-2-(1,2,3,4-tetrahydro-1-quinolinyl)ethyl]benezenepropanamide, monohydrochloride], for which the IC50 turned out to be 61 nM.
On to `Cc1cc(O)cc(C)c1C[C@H](N)C(=O)N[C@H](C)C(=O)NCCc1cccs1.Cl` [Example 39, 2,6-dimethyl-L-tyrosyl-N-[2-(2-thienyl)ethyl]-D-alainamide, monohydrochloride], for which the half-inhibitory concentration (IC50) worked out at 1.2 nM.
